Reference: ChEMBL document CHEMBL1151856, “Novel, potent, and radio-iodinatable somatostatin receptor 1 (sst1) selective analogues” (J Med Chem, 2009)

By UniProt entry, the sequences of proteins in these tests, tags left out. Where a name states a change or a piece, a line headed by the entry shows the natural chain unless it says otherwise.
UniProt P30872: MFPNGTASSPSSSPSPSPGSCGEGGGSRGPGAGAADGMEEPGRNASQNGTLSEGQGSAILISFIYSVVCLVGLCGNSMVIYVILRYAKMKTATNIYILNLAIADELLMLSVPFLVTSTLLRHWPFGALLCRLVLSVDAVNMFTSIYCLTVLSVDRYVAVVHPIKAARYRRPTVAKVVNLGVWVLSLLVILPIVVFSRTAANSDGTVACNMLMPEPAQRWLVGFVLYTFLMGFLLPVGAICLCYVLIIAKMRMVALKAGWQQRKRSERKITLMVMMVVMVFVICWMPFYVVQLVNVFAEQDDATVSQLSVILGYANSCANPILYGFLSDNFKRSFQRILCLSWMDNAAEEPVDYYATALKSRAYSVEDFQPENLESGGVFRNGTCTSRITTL

Experiments:
[1] = molecular target: T1, Somatostatin receptor type 1 (Homo sapiens, UniProt P30872); test: Displacement of [125I]LTT-SRIF-28 from human sst1 receptor by autoradiography
Summary of the method: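 Competition autoradiography on 20-μm cryostat sections of membrane pellets from cells expressing each cloned receptor. Buffer was 170 mM Tris-HCl pH 8.2 with 1% BSA, bacitracin and 10 mM MgCl2. Cold washes, 1-week film exposure, image quantification against isotope standards, IC50 derived.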

[2] = molecular target: T1, Somatostatin receptor type 1; test: Agonist activity at human sst1 receptor expressed in Chinese hamster CCL39 cells by luciferase reporter gene assay relative to somatostatin-14; assay type: functional, cell-based

Question: Which IC50 [1] does the source give for `CC(C)NCc1ccc(C[C@@H]2NC(=O)[C@H](N(C)C(=O)c3ccc4ccccc4c3)NC(=O)[C@H](Cc3ccccc3)NC(=O)[C@@H](NC(=O)[C@H](N)Cc3ccc(O)cc3)CSSC[C@@H](C(=O)N[C@H](C(N)=O)[C@@H](C)O)NC(=O)[C@H](Cc3ccccc3)NC2=O)cc1` here?
Answer: The IC50 was 0.097 µM.

Question: With `CC(C)NCc1ccc(C[C@@H]2NC(=O)[C@@H](Cc3c[nH]c4ccccc34)NC(=O)[C@H](Cc3ccccc3)NC(=O)[C@H](Cc3ccccc3)NC(=O)[C@H](CCCCN)NC(=O)[C@@H](NC(=O)[C@@H](N)Cc3ccc(O)cc3)CSSC[C@@H](C(=O)O)NC(=O)[C@H](CO)NC(=O)[C@H]([C@@H](C)O)NC(=O)[C@H](Cc3ccccc3)NC(=O)[C@H]([C@@H](C)O)NC2=O)cc1` as the compound, how does the EC50 [2] read?
Answer: The EC50 was 0.033 µM.

Question: With `CC(C)NCc1ccc(C[C@@H]2NC(=O)[C@@H](N(C)C(=O)c3ccc4ccccc4c3)NC(=O)[C@H](Cc3ccccc3)NC(=O)[C@@H](NC(=O)[C@H](N)Cc3ccc(O)cc3)CSSC[C@@H](C(=O)N[C@H](C(N)=O)[C@@H](C)O)NC(=O)[C@H](Cc3ccccc3)NC2=O)cc1` as the compound, how does the EC50 [2] read?
Answer: Its EC50 is 0.00037 µM.

Question: And the IC50 [1]?
Answer: Its IC50 is 0.00019 µM.
